Assay [1] has as its target human muscarinic M1 receptor (Homo sapiens, UniProt P11229). The experiment in a line: Alphascreen Surefire phospho-ERK1/2 functional assay, M1. The format is cell-based. For orientation: Bead proximity is the source of the signal in Alpha formats.
For assay [2], the target named is human muscarinic M4 receptor (Homo sapiens, UniProt P08173). The assay is described as follows: Alphascreen Surefire phospho-ERK1/2 functional assay, M4. It counts as cell-based.

Chains of the proteins cited; added tags and fusions are not shown.
UniProt P11229, whole entry: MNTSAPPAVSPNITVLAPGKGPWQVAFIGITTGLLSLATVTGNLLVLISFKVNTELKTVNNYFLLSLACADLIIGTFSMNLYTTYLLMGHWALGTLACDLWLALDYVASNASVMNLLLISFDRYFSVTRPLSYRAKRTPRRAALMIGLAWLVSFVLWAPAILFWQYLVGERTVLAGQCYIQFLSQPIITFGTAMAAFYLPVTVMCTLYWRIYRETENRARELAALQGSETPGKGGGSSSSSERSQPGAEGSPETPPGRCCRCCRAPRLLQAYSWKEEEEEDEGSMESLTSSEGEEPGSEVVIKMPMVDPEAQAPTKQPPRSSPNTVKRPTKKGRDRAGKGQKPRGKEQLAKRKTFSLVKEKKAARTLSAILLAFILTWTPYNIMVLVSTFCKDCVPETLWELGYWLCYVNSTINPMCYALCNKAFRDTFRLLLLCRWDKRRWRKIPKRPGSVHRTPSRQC
UniProt P08173, whole entry: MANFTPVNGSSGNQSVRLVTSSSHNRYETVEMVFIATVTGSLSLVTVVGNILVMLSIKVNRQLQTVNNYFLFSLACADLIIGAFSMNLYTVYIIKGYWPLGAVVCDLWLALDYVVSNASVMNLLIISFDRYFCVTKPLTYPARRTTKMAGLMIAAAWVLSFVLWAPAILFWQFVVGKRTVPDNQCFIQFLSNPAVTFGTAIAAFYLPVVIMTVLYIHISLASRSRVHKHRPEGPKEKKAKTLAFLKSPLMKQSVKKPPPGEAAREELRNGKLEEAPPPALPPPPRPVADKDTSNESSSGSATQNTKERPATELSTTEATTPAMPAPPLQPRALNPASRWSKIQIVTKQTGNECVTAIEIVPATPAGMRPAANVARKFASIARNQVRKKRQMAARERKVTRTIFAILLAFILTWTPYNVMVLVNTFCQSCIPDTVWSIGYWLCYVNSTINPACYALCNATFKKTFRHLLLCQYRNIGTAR

Structures are written as SMILES. Only a part of the results on these compounds is given; other tests are left out.

With `CCOC(=O)N1CCC2(CC(N3CCC(N(C(C)=O)c4ccccn4)CC3)C2)C1` (stereo not shown), in assay [1] (CHO cells stably expressing human M1), the “pEC50 M1” value came to 6.8. Further, in assay [1] (CHO cells stably expressing human M1, relative to ACh), the “% Emax cf. ACh (M1)” value amounted to 116%. Also, in assay [2] (CHO cells stably expressing human M4), the “pEC50 M4” value came to 6.2. Moreover, the “% Emax cf. ACh (M4)” value in assay [2] (CHO cells stably expressing human M4, relative to ACh) was determined as 56%.

The record behind these values is US10167272B2, “Muscarinic agonists” (Heptares Therapeutics Limited, priority 2015, dated 2019).
